According to ChEMBL document CHEMBL4321821, “Opioids as Substrates and Inhibitors of the Genetically Highly Variable Organic Cation Transporter OCT1” (J Med Chem, 2019):
Some compounds may have been tested in ways that are not shown here.

Protein sequences, listed by entry. Tags and fused reporters are not part of them.
UniProt O15245, whole entry: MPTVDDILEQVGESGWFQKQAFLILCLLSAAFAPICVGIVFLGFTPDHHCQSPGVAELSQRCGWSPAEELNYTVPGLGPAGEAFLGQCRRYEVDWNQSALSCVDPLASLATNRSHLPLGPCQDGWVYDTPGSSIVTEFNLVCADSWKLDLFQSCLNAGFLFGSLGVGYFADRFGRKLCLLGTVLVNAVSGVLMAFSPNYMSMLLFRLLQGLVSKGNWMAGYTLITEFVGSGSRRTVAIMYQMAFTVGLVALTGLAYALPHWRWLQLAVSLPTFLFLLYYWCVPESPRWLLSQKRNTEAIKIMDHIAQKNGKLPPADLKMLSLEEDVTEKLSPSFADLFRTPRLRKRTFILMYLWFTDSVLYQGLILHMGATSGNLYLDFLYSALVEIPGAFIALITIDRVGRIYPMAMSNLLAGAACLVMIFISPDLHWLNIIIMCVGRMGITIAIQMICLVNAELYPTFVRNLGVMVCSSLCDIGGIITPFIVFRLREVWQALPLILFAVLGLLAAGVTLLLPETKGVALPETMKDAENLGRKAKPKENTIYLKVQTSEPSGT
UniProt O75751, whole entry: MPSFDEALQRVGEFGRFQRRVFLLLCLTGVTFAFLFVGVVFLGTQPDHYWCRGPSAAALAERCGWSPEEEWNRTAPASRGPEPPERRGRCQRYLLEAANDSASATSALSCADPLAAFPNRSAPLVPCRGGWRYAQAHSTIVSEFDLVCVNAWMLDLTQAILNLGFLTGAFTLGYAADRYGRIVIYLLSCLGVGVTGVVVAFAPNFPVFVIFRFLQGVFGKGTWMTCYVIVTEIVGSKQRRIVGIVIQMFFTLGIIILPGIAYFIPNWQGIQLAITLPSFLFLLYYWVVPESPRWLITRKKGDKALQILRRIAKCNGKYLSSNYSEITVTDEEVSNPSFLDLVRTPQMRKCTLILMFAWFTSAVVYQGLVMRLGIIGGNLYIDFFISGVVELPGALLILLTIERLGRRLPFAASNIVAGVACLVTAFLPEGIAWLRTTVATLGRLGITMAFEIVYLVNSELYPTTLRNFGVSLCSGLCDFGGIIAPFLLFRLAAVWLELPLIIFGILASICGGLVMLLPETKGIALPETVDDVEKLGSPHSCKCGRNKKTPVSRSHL

Experiments:
Assay type in all cases: cell-based
Details in all cases: hek293, 2 min
[1] = biological target: T1, Solute carrier family 22 member 1 (Homo sapiens, UniProt O15245); experiment: Substrate activity at human OCT1 expressed in HEK293 cells assessed as increase in compound uptake at 0.05 uM incubated for 2 mins by LC-MS/MS analysis relative to control empty vector transfected cells
[2] = biological target: T1, Solute carrier family 22 member 1; experiment: Substrate activity at human OCT1 expressed in HEK293 cells assessed as increase in compound uptake at 0.1 uM incubated for 2 mins by LC-MS/MS analysis relative to control empty vector transfected cells
[3] = biological target: T1, Solute carrier family 22 member 1; experiment: Substrate activity at human OCT1 expressed in HEK293 cells assessed as increase in compound uptake at 0.5 uM incubated for 2 mins by LC-MS/MS analysis relative to control empty vector transfected cells
[4] = biological target: T1, Solute carrier family 22 member 1; experiment: Substrate activity at human OCT1 expressed in HEK293 cells assessed as increase in compound uptake by measuring Vmax incubated for 2 mins by LC-MS/MS analysis based Michaelis-Menten plot analysis relative to control empty vector transfected cells
[5] = biological target: Solute carrier family 22 member 3 (Homo sapiens, UniProt O75751); experiment: Substrate activity at human OCT3 expressed in HEK293 cells assessed as increase in compound uptake by measuring Vmax incubated for 2 mins by LC-MS/MS analysis based Michaelis-Menten plot analysis relative to control empty vector transfected cells

Structure (SMILES): CCC(=O)N(c1ccccc1)C1CCNCC1
- fold change (FC) [1]: 7
- fold change (FC) [2]: 6.6
- fold change (FC) [3]: 7.2
- Vmax [4]: 178 pmol/min/mg
- Vmax [5]: 104 pmol/min/mg
